According to patent publication US20170137514A1 (Bristol-Myers Squibb, published 2017):

What was measured:
[1] = biological target: T1, human LAG-3 on activated Hu CD4+ T cells; test: flow cytometry on activated human CD4+ T cells (donor WB1907), FL2 GMFI; forced stability study, sample not marked pH 8
T1 construct: differs from m5, which is LAG-3 transduced into 3A9 cells; also called native human LAG-3
T1 chain: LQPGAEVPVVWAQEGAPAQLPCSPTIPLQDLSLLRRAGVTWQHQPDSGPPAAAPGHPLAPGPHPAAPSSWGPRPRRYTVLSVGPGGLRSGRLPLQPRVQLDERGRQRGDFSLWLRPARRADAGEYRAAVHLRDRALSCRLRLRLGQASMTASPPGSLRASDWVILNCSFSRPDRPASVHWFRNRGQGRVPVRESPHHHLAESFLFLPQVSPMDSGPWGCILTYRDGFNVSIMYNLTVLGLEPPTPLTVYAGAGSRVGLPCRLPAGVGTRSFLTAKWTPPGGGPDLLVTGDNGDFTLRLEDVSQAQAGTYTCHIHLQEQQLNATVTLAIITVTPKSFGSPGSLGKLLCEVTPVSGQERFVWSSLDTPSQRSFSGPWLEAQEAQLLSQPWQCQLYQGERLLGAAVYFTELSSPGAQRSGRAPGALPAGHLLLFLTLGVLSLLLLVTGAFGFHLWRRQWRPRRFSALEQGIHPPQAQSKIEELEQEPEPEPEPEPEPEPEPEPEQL
Procedure: (§1) To test the ability of the antibody variants to bind to native human LAG-3 on the surface of activated human T cells, normal healthy donor peripheral blood mononuclear cells were stimulated in 15 cm tissue culture plates at a density of 2×10e6 cells/mL, with a combination of anti-CD3 (eBioscience, Cat #16-0037-85) and anti-CD28 (BD Bioscience, Cat #555725) antibodies present in solution at 5 μg/mL and 3 μg/mL, respectively. Following three days of stimulation cells were harvested, washed 1× with 1×PFAE buffer (1×PBS+2% FBS, 0.02% sodium azide, 2 mM Na EDTA), and resuspended in 1×PFAE buffer for staining.
(§2) For the binding reaction, 100 μl of this diluted antibody mixture was added to 2×10⁵ cells and the mixture was incubated on at 4° C. for 30 minutes. The cells were then washed two times with 1×PFAE buffer. A 1:200 dilution of PE-labeled goat anti-human Fcγ-specific antibody (Jackson ImmunoResearch, Cat. #109-116-170) was added and the mixture was incubated for 30 minutes at 4° C., followed by washing twice with cold 1×PFAE buffer. After the final wash, 150 μl of cold 1×PFAE was added to each solution and analysis of antibody binding was carried out by flow cytometry using a FACSCanto flow cytometer (BD Bioscience).

[2] = biological target: T1, human LAG-3 on activated Hu CD4+ T cells; test: flow cytometry on activated human CD4+ T cells (donor WB1907), FL2 GMFI; antibody after 5 days at 40 °C in pH 8.0 ammonium bicarbonate
Procedure: as §1, §2

B1: LAG3.5 monoclonal antibody (variant of 25F7 with R at position 54 and S at position 56 of VH CDR2) (antibody, human IgG4 S228P, kappa, V domains shown)
VH: QVQLQQWGAGLLKPSETLSLTCAVYGGSFSDYYWNWIRQPPGKGLEWIGEINHRGSTNSNPSLKSRVTLSLDTSKNQFSLKLRSVTAADTAVYYCAFGYSDYEYNWFDPWGQGTLVTVSS
VL: EIVLTQSPATLSLSPGERATLSCRASQSISSYLAWYQQKPGQAPRLLIYDASNRATGIPARFSGSGSGTDFTLTISSLEPEDFAVYYCQQRSNWPLTFGQGTNLEIKR
- EC50 [1]: 0.46 nM
- EC50 [2]: 0.46 nM
